pIC50: −log10 of the molar value.
Key:
[1] = biological target: T1, HIT antibody complex (Platelet Factor 4 and antibody) (Homo sapiens, UniProt P02776); experiment: Modified diagnostic HIT assay (Zymutest HIA IgG), competition with plate-bound heparin; conditions: ELISA, absorbance 415 nm
T1 sequence (P02776 32-101): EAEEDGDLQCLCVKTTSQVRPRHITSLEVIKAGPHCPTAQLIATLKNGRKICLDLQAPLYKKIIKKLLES
Experimental: ELISA methodology was used to measure the bound antibody as measured by absorbance (at 415 nm) of the product derived from a chromogenic substrate by the enzyme on the secondary antibody probe. […] Heparin derivatives treated to reduce their anticoagulant activity (non-anticoagulant heparin (NACH) or Roneparstat (Rone)) were also tested in the HIT assay.

Amino acid sequences for entries named in this document (tags omitted). Residues count along the entry.
UniProt P01008, 33-464: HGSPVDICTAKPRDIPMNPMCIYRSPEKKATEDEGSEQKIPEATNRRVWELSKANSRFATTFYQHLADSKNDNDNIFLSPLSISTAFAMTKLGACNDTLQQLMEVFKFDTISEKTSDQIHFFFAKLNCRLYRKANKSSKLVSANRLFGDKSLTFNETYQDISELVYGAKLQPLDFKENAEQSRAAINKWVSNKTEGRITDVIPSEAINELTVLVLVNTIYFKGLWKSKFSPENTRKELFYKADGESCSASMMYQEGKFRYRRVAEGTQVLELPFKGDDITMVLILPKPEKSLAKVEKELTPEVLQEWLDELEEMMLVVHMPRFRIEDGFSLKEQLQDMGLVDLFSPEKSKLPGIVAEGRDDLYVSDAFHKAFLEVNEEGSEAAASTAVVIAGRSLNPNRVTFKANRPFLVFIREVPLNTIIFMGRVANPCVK

[2] = biological target: T2, Recombinant human heparanase (Homo sapiens, UniProt Q9Y251); experiment: Gel-based heparanase enzyme inhibition assay, fluorescent synthetic O-sulfated heparosan substrate; format: biochemical
T2 construct: purchased R&D Systems; Minneapolis, MN
T2 sequence (Q9Y251 158-543 limits assumed): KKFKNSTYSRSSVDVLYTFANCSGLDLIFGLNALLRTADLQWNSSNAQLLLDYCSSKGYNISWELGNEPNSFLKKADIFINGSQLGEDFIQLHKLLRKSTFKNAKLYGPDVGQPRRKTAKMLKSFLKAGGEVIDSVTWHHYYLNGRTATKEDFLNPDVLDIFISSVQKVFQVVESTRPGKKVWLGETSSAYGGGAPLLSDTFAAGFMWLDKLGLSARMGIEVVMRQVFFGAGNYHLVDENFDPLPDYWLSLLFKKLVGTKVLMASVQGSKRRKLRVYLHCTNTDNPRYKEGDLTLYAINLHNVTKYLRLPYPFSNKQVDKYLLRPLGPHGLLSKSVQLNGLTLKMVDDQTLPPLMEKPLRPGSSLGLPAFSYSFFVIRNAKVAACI
T2 sequence (Q9Y251 36-109 limits assumed): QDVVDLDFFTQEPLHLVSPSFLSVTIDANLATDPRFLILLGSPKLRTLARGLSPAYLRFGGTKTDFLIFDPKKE
Description: PAGE (15%, 1×TBE) analysis of the kinetics of Hepase cleavage of a fluorescent sulfo-O-linked heparosan substrate (starting material marked with arrow) with a titration of the sTestan inhibitor (decreasing amounts in nanograms from left to right; 15-min time point shown here). A calibrant series of fluorescent substrate treated with varying amounts of heparanase enzyme (‘¼,’ ‘½,’ or ‘1’ for 25%, 50%, or 100% relative amounts, respectively) was used to evaluate inhibitor potency (shown on left). […]
A gel-based assay was used to monitor the catalytic action of recombinant human heparanase (R&D Systems; Minneapolis, MN) on polysaccharide substrates. In these assays, fluorescent chains were monitored for cleavage; the disappearance of the parental substrate band is readily noticeable. […]
Two types of substrates were employed to follow heparanase activity: (i) a fluorescein end-labeled synthetic O-sulfated O-linked heparosan or (ii) polyacrylamide gel electrophoretically-purified rhodamine-tagged HS. […] Aliquots of reactions were analyzed by polyacrylamide gel electrophoresis (2 μl of reaction/lane; 20% gels, 1×TBE) and fluorescence imaging (5-120 sec exposures; ChemiDoc MP). […]

[3] = biological target: thrombin/antithrombin III interaction (Homo sapiens, UniProt P01008); conditions: FIG. 9

sulfated or sulfonated testosteronan [sTestan]
HIT complex reactivity (competition with plate-bound heparin) [1]: less or similar HIT potential than heparin and its derivatives
pIC50 [2]: 7.70 to 8.30
fold less effective than heparin as anticoagulant [3]: ≥ 20,000 fold

Source: patent US20250375471A1, “HEPARANASE INHIBITORS AND METHODS OF USE” (The Board of Regents of the University of Oklahoma, priority 2022, published 2025)
